## Ab-14 heavy chain CDR variants: yeast mating affinities

From the AlphaSeq antibody data of Li et al. 2023 (doi:10.1038/s41467-023-39022-2), copy in the FLAb collection.

The target is the same throughout: PDVDLGDISGINAS, from the HR2 region of SARS-CoV-2 spike.

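The parent was found by panning a naive human phage display library on the peptide. This is the validation round: designs drawn from the data on random variants, tested in the same kind of assay. Several design methods are mixed in this list. The scFvs were displayed on barcoded MATa yeast, the peptide on MATalpha yeast. After mating in shaken culture at 30 °C for 16 h, diploids were selected and their barcode pairs sequenced. Each replicate has its own calibration line, from reference interactions of the BCL2 family. There are six technical replicates.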

Parent scFv Ab-14: VH joined to VL by a 15-residue (Gly4Ser)3 linker. Changes lie in the heavy chain CDRs alone.
VH: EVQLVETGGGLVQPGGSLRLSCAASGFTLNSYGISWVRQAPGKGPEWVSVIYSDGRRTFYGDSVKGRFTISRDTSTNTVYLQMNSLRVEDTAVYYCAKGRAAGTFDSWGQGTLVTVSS
VL: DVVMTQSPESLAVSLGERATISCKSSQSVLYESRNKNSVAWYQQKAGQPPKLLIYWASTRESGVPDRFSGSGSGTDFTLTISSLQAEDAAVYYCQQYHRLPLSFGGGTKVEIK

The parent's heavy chain CDRs are GFTLNSYGIS, VIYSDGRRTFYGDSVK, GRAAGTFDS; each variant's own CDRs replace them letter for letter. Variants here have more than six changes. The Kd shown is the geometric mean over detected replicates; a lower Kd is a better binder. "no signal" marks a missing value. The strain was present, yet no cells mated with the target were sequenced in any replicate, which points to weak or no binding. In the paper, a design with two or fewer of six values counts as a poor binder.

| CDR-H1 | CDR-H2 | CDR-H3 | Kd | detected | empty controls |
|---|---|---|---|---|---|
| GFNLNEYGIS | VIYADGRRTFYADSVK | GNQAGTFIM | 160 pM | 5/6 | 0/18 |
| GFDVMEYGIS | VIYADGMRQAYTNKVK | GGITSSGLI | no signal | 0/6 | 0/18 |
| GFDLNEYGIS | VIYADGMRTYYADSVK | GNNAGTFDV | 260 pM | 6/6 | 0/18 |
| GFDLNEQGIS | VIYADGRRRATINQVK | GSNSFTFDL | no signal | 0/6 | 0/18 |
| GFDLDEYGIS | VIYADGRRTAYADSVK | GEVAGTFDV | 330 pM | 6/6 | 0/18 |
| GFNLDEYGVS | VIYADGQRTQYAQDVK | GKTGFHLFI | 220 pM | 6/6 | 0/18 |
| GFDLDEYGIS | VIYADGKRTFYADSVK | GNVAGTFDV | 240 pM | 6/6 | 0/18 |
| GFDLQEYGIS | VIYADGKRSMYSNDVK | GAVGLGELL | no signal | 0/6 | 0/18 |
| GFSLDEYGIS | VIYADGKRTFYADDVK | GNVAGTFDV | 250 pM | 6/6 | 0/18 |
| GFDLDEYGIS | VIYADGKRTAYSDNVK | GEVAGTFDV | 990 pM | 6/6 | 0/18 |
| GFDLDEYGIS | VIYADGMRTAYADSVK | GNTAGTFDM | 700 pM | 6/6 | 0/18 |
| GFDLTEYGIS | VIYADGRRQEYVDDVK | GQTAGHFLD | no signal | 0/6 | 0/18 |
| GFDLNEYGIS | VIYADGRRTFYADSVK | GEYAGTFDI | 650 pM | 6/6 | 0/18 |
| GFDIDEYGIS | VIYADGQRKAYTENVK | GQHGGMTVA | no signal | 0/6 | 0/18 |
| GFDLNEYGIS | VIYADGRRTYYADSVK | GQIAGTFDQ | 360 pM | 6/6 | 0/18 |
| GFDIEDYGIS | VIYADGKRSAYSNSVK | GLMAGNMGY | 1.3 nM | 6/6 | 1/18 |
| GFDLGEYGIS | VIYADGSRKAYATSFK | GGSGYKDGV | no signal | 0/6 | 0/18 |
| GFDLNEYGIS | VIYADGQRTFYADSVK | GNEAGTFDM | no signal | 0/6 | 0/18 |
| GFDLAEYGIS | VIYADGSRTAYNQNVK | GLGGDSFDI | no signal | 0/6 | 0/18 |
| GKSLDDYGIS | VIYADGLRTSYTETVK | GNSGGVFIV | no signal | 0/6 | 0/18 |
| GFGMEEYGIS | VIYADGQRNAYADEVK | GENAGIFDI | 19 nM | 3/6 | 0/18 |
| GFDLNEYGIS | VIYADGKRTFYADSVK | GQIAGTFDT | 250 pM | 6/6 | 0/18 |
| GFDLNEYGIS | VIYADGVRKVYADSVK | GNNAGTFDV | 620 pM | 6/6 | 0/18 |
| GFDLNEYGIS | VIYADGVRTAYADSVK | GVNAGTFDI | 460 pM | 6/6 | 0/18 |
| GFDLDEYGIS | VIYADGMRTAYTDSVK | GEVAGTFDI | 760 pM | 6/6 | 0/18 |
| GNVLDEYGIS | VIYADGMRTSYAQNVK | GIEGDNFMT | no signal | 0/6 | 1/18 |
| GFDLNEYGIS | VIYADGRRTAYADSVK | GGNAGTFDM | 610 pM | 6/6 | 2/18 |
| GFDINEYGIS | VIYADGRRTQYADSVK | GEVAGTFDS | 760 pM | 6/6 | 0/18 |
| GFDLDEYGIS | VIYADGRRTFYADSVK | GEAAGTFDQ | 280 pM | 6/6 | 0/18 |
| GFSLDEYGIS | VIYADGMRTAYADSVK | GENAGTFDV | 19 nM | 6/6 | 0/18 |
| GFDLNEYGIS | VIYADGQRTAYADSVK | GKNAGTFDI | 3.9 nM | 6/6 | 1/18 |
| GFDLDEYGIS | VIYADGKRTFYADSVK | GSNAGTFDM | 520 pM | 6/6 | 0/18 |
| GFDLDEYGIS | VIYADGKRTSYQADVK | GSQVGNALV | 28 nM | 1/6 | 0/18 |
| GFDLDEYGIS | VIYADGMRTQYADSVK | GNVAGTFDV | 1.0 nM | 5/6 | 0/18 |
| GFDLNEYGIS | VIYADGKRTAYSDSVK | GNTAGTFDL | 480 pM | 6/6 | 0/18 |
| GFDLNEYGIS | VIYADGMRTAYIDSVK | GNQAGTFDI | 500 pM | 6/6 | 0/18 |
| GFNLNEYGIS | VIYADGRRTFYADSVK | GETAGTFDV | 160 pM | 6/6 | 0/18 |
| GFSIDEYGIS | VIYADGLRQHYANAVK | GEAAGTFDT | 56 nM | 5/6 | 0/18 |
| GFDLNEYGIS | VIYADGRRTFYIDSVK | GEQAGTFDV | 220 pM | 6/6 | 0/18 |
| GFDLNEYGIS | VIYADGVRTAYADSVK | GEEAGTFDV | 320 pM | 6/6 | 1/18 |
| GFNLNEYGIS | VIYADGRRTFYADSVK | GEIAGTFIL | 4.7 nM | 6/6 | 0/18 |
| GESLEEYGIS | VIYADGMREQYSDSVK | GRQGGFFVV | no signal | 0/6 | 0/18 |
| GKDLEEYGIS | VIYADGHRAAYADSVK | GINMDVMTV | 8.0 µM | 1/6 | 0/18 |
| GDDLEAYGIS | VIYADGMRTYYDDAVK | GNVNGTFTD | 250 nM | 1/6 | 0/18 |
| GFDLNEYGIS | VIYADGRRTFYSDKVK | GNQGGTFDI | 2.7 nM | 4/6 | 0/18 |
| GFDLNEYGIS | VIYADGQRTYAANTVK | GGAVGGQLD | 35 nM | 1/6 | 0/18 |
| GFDLNEYGIS | VIYADGRRTFYTDSVK | GNLAGTFDV | 170 pM | 6/6 | 0/18 |
| GFDINEMGIS | VIYADGQRLFYAQEVK | GENTGTFGM | no signal | 0/6 | 0/18 |
| GFDLNEYGIS | VIYADGKRTFYSDSVK | GQTAGTFDV | 300 pM | 6/6 | 0/18 |
| GFSLDEFGIS | VIYADGMRSAYSQNVK | GQHVGFTVS | no signal | 0/6 | 0/18 |
| GFDLNEYGIS | VIYADGMRKAYADSVK | GNQAGTFDV | 140 pM | 6/6 | 0/18 |
| GFDLNEYGIS | VIYADGRRTQYIDSVK | GNTAGTFDQ | 770 pM | 6/6 | 0/18 |
| GFDLNEYGIS | VIYADGVRKSYADDVK | GNVAGTFDV | 100 pM | 6/6 | 0/18 |
| GFNLDEYGIS | VIYADGMRTFYSDNVK | GEAAGTFDI | 1.5 nM | 6/6 | 0/18 |
| GFDLQELGIS | VIYADGTREAYSEKVK | GQLAGYFVF | no signal | 0/6 | 0/18 |
| GFDLNEYGIS | VIYADGRRTFYTDSVK | GEHAGIFDI | 6.0 nM | 6/6 | 0/18 |

Excerpt, the first 9 entries:

{"CDR-H1": "GFNLNEYGIS", "CDR-H2": "VIYADGRRTFYADSVK", "CDR-H3": "GNQAGTFIM", "Kd": "160 pM", "detected": "5/6", "empty controls": "0/18"}
{"CDR-H1": "GFDVMEYGIS", "CDR-H2": "VIYADGMRQAYTNKVK", "CDR-H3": "GGITSSGLI", "Kd": "no signal", "detected": "0/6", "empty controls": "0/18"}
{"CDR-H1": "GFDLNEYGIS", "CDR-H2": "VIYADGMRTYYADSVK", "CDR-H3": "GNNAGTFDV", "Kd": "260 pM", "detected": "6/6", "empty controls": "0/18"}
{"CDR-H1": "GFDLNEQGIS", "CDR-H2": "VIYADGRRRATINQVK", "CDR-H3": "GSNSFTFDL", "Kd": "no signal", "detected": "0/6", "empty controls": "0/18"}
{"CDR-H1": "GFDLDEYGIS", "CDR-H2": "VIYADGRRTAYADSVK", "CDR-H3": "GEVAGTFDV", "Kd": "330 pM", "detected": "6/6", "empty controls": "0/18"}
{"CDR-H1": "GFNLDEYGVS", "CDR-H2": "VIYADGQRTQYAQDVK", "CDR-H3": "GKTGFHLFI", "Kd": "220 pM", "detected": "6/6", "empty controls": "0/18"}
{"CDR-H1": "GFDLDEYGIS", "CDR-H2": "VIYADGKRTFYADSVK", "CDR-H3": "GNVAGTFDV", "Kd": "240 pM", "detected": "6/6", "empty controls": "0/18"}
{"CDR-H1": "GFDLQEYGIS", "CDR-H2": "VIYADGKRSMYSNDVK", "CDR-H3": "GAVGLGELL", "Kd": "no signal", "detected": "0/6", "empty controls": "0/18"}
{"CDR-H1": "GFSLDEYGIS", "CDR-H2": "VIYADGKRTFYADDVK", "CDR-H3": "GNVAGTFDV", "Kd": "250 pM", "detected": "6/6", "empty controls": "0/18"}

Values of this round are not directly comparable with the first-round values of the same sequences. Of ten entries with the parent sequence, four were seen in most replicates (averages 2.2 nM to 240 nM), three in one and three in none, so single entries are noisy. Empty control strains, which show no peptide, gave a signal in 1% of pairings with all heavy chain designs; the median was 120 nM and 95% of these signals were weaker than 7.0 nM. No background was subtracted. For each scFv, signals with the empty controls are counted beside the result.